Experimental data: patent publication US7371207B2, “Estrogen receptor α regulated gene expression, related assays and therapeutics” (Wyeth, priority 2002, dated 2008)

Tested on: gene expression in the pituitary
Assay: GeneChip microarray survey of E2 regulated gene expression, pituitary
Settings: mouse, in vivo
Description: One week later, the animals were ovariectomized.

For estrogen, the “Kallikrein-9 expression in pituitary” value was “induced”.
